Data: PMC6159918 (Peptides, 2018)

By UniProt entry, the sequences of proteins in these tests, tags left out. Where a name states a change or a piece, a line headed by the entry shows the natural chain unless it says otherwise.
UniProt P30550: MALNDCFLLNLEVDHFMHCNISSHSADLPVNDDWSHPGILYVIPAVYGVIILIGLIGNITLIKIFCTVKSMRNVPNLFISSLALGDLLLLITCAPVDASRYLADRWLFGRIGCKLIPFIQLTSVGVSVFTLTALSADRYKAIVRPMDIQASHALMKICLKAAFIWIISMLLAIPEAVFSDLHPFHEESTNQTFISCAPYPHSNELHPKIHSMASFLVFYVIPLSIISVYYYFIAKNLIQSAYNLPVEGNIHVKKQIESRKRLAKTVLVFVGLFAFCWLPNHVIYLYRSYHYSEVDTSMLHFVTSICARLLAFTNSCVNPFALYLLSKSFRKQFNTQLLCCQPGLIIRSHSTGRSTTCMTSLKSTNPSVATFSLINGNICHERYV
UniProt P28336: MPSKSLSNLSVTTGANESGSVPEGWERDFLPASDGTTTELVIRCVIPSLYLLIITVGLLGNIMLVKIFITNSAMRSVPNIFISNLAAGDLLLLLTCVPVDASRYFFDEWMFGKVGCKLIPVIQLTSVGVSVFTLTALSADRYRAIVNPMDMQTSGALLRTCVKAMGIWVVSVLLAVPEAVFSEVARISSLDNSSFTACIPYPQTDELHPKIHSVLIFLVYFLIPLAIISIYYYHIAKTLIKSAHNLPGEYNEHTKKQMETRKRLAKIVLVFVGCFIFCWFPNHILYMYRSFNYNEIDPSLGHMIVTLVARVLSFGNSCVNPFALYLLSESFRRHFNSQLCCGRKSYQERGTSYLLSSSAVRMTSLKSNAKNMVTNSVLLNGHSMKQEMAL

How the values were obtained:
GRPR = GRPR (Homo sapiens, UniProt P30550); format: cell-based
NMBR = NMBR (Homo sapiens, UniProt P28336); assay: [3H]IP production, NMBR agonist/antagonist; format: cell-based; settings: NCI-H727 (carcinoid), control 143 ± 21

Substance: [D-Phe^6]Bombesin-(6–13)-methyl ester
- [3H]IP (DPM) (GRPR; Peptide #1 (10 nM) + ME 1 μM, NCI-H69 (SCLC), control 177 ± 27): 476 ± 128 DPM
- [3H]IP (DPM) (GRPR; Peptide #1 (10 nM) + ME 1 μM, NCI-H727 (carcinoid), control 143 ± 21): 189 ± 56 DPM

Substance: gastrin-releasing peptide [GRP]
- [3H]IP (DPM) (GRPR; GRP 100 nM, NCI-H69 (SCLC), control 177 ± 27): 180 ± 19 DPM
- [3H]IP (DPM) (GRPR; GRP 100 nM, NCI-H727 (carcinoid), control 143 ± 21): 254 ± 40 DPM
- [3H]IP (DPM) (GRPR; GRP 1 μM, NCI-H69 (SCLC), control 177 ± 27): 200 ± 41 DPM
- [3H]IP (DPM) (GRPR; GRP 1 μM, NCI-H727 (carcinoid), control 143 ± 21): 164 ± 32 DPM

Substance: neuromedin B [NMB]
- [3H]IP (DPM) (NMBR; NMB 100 nM): 278 ± 48 DPM
- [3H]IP (DPM) (NMBR; NMB 1 μM): 178 ± 30 DPM

Where two headings read alike, the source gives them in different places.
